# AlphaSeq binding of Ab-14 light chain variants to a spike HR2 peptide

Source: Li et al. 2023 (doi:10.1038/s41467-023-39022-2), MIT Lincoln Laboratory and A-Alpha Bio; data file from the FLAb repository.

The target is the same throughout: PDVDLGDISGINAS, from the HR2 region of SARS-CoV-2 spike.

Parent: Ab-14, a human scFv built as VH, a (GGGGS)3 linker, VL. Only the CDRs of the light chain vary.
VH: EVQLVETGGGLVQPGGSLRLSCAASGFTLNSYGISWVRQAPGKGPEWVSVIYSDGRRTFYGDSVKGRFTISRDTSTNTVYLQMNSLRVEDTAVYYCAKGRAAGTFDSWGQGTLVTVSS
VL: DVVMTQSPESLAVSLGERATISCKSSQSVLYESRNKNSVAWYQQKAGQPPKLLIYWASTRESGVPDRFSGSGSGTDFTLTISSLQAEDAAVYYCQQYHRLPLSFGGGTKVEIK

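Phage display of a naive human antibody library on the peptide gave the parent. The variants were designed computationally from a first round of random CDR variants and then made and measured. Several design methods are mixed in this list. In AlphaSeq, yeast of one mating type display the scFv and yeast of the other type display the target. Pairs that bind mate more often; barcode pairs of the diploids are counted by sequencing. The ratio of observed to expected reads was calibrated, replicate by replicate, on BCL2-family standards whose Kd was known from biolayer interferometry. Mating was done six times.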

Variants are written as CDR1, CDR2 and CDR3 of the light chain (limits as in the source). Parent: KSSQSVLYESRNKNSVA, WASTRES, QQYHRLPLS. Each Kd is an estimate from the mating assay, the geometric mean of the replicates in which the pair was seen; lower is stronger. Where no diploid with the target was found in any replicate, the entry reads "nd": below detection, most likely a poor binder, though not proof of it.

The variant IVTEAQNENSLYTNNIA | EGENTLA | QQYFRLPLM gave 10 nM (6 of 6 replicates).
The variant KSSQSVLYESRNKNSVA | WASTRLQ | QECHRLPLS gave nd (0 of 6 replicates).
The variant KLMQGVDMESRNKNSVA | NASMRED | QQYHRLPLS gave 2.3 nM (6 of 6 replicates).
The variant KFSQSKEMVNYEGESIA | GSHTIQE | QQYDRLPLA gave 8.8 nM (6 of 6 replicates).
The variant KIGQGVLYESRNKNSVA | GASQRWS | QQYHRLPLS gave 3.3 nM (6 of 6 replicates).
The variant KNSQSVLYESRNKNSVA | HASTRES | QQYHRLPLS gave 4.5 nM (6 of 6 replicates).
The variant KASQSVLVESRNKQSVA | KASTRES | QQYLRLPLS gave 2.9 nM (6 of 6 replicates).
The variant KLYQSTAMTSRMRNNVA | DLNERER | QQYFRLPLS gave 1.9 nM (6 of 6 replicates).
The variant KSSQSVFYESRNKNSVA | WASTRES | QQYHREPLS gave nd (0 of 6 replicates).
The variant KLSGSELYESRNKNSVA | HASTRES | QQYHRLPLS gave 1.6 nM (6 of 6 replicates).
The variant HITMGMYVAGHHHSSIA | QAETREK | QQYDRLPLS gave 34 nM (6 of 6 replicates).
The variant KLQSITGTEKVSKNNVA | EMETRER | QQYNRLPLS gave 27 nM (6 of 6 replicates).
The variant TISQMTSLFSQSINNVA | EVSMREP | QQYDRLPLS gave 29 nM (4 of 6 replicates).
The variant KSSISFLIESRNKNSVA | EASTRES | QQYHRLPLS gave 840 pM (6 of 6 replicates).
The variant HLGGLMTWEEKGRNSVA | QQETRAE | QQYHHLPLS gave 2.0 nM (6 of 6 replicates).
The variant SLIPFENQIMKGLNNIA | NTSVRAS | QQYMRLPFV gave 1.8 nM (6 of 6 replicates).
The variant KLSQSELYESRNKNSVA | NASYRLS | QQYHRLPLS gave 3.2 nM (6 of 6 replicates).
The variant KLSQSVLYESRTKNSVA | NASTRES | QWYHRLPLS gave 8.8 nM (6 of 6 replicates).
The variant KLSQDALYESRNKNSVA | NASTREV | QQYHRLPLS gave 1.0 nM (6 of 6 replicates).
The variant KFSQSVLYESRTKNNVA | NASTRES | QQYHRLPLS gave 1.0 nM (6 of 6 replicates).
The variant KSSQSMWYESRNKNSVA | NASTRNS | QQYHRLPLS gave 41 nM (6 of 6 replicates).
The variant NLSGMVEEQETRQKNIA | EVEFRCM | QQYSRLPLS gave nd (0 of 6 replicates).
The variant HQSQSVLYESRNKNSVA | NGSTREQ | QQYHRLPLS gave 1.4 nM (6 of 6 replicates).
The variant KLQQSWEYESRNSNNVA | QASTRSS | QQYHRLPLS gave 620 pM (6 of 6 replicates).
The variant KVSQSVPYESRNKNSVA | EASTRCS | QQYHRLPLS gave 620 pM (6 of 6 replicates).
The variant KLQQSVQYESRNSNAVA | QASQRES | QQYHRLPLS gave 1.8 nM (6 of 6 replicates).
The variant NISHFMDVTAKNINNVA | EMTMREQ | QQYHHLPLS gave 1.3 nM (6 of 6 replicates).
The variant NLSWKSLGFENEWMAIA | NTKERNA | QQYARLPLS gave 3.9 nM (6 of 6 replicates).
The variant HLSINMPQQHYMYDSIA | HSDRREV | QQYYRLPLA gave 5.1 nM (6 of 6 replicates).
The variant KSNQSVLYESRNKQSVA | WASTRES | QQYHRLPLR gave nd (0 of 6 replicates).
The variant KSSQSVEYESRNSNSVA | WASTRES | QQYHRLPLS gave 6.0 nM (6 of 6 replicates).
The variant KLEMSHLYESRNKNSVA | NASTRES | QQYHRLPLS gave 660 pM (6 of 6 replicates).
The variant TISELHNQALGIRNNVA | NNQTRED | QQYDRLPLS gave 1.3 µM (2 of 6 replicates).
The variant KSSQIVLYESRNKNSVA | GASTRSS | QQYHRLPLS gave 11 nM (6 of 6 replicates).
The variant KSSQSVLYESRNKNAVA | QASTRES | QQYHRLPLS gave 3.0 nM (6 of 6 replicates).
The variant SMQSDQIEGNQQQNSIA | GESIADM | QHYERLPLT gave 10 nM (6 of 6 replicates).
The variant KLSQSWLYESRNKNSVA | NASTRES | QDYHRLPLS gave 390 pM (6 of 6 replicates).
The variant MIYGAQRELGLMANSIA | DNVTRQD | QQYNRLPLS gave 2.2 µM (2 of 6 replicates).
The variant KSSQPVLYESRNKHSVA | WASTRES | QQYHRLPLS gave nd (0 of 6 replicates).
The variant TIQQMMSLFSQTINNVA | EVSTRLN | QQYDRLPLS gave 88 nM (5 of 6 replicates).
The variant SLTAHHEEAKRAENSVA | EAVMLES | QQYHQLPLM gave 29 nM (5 of 6 replicates).
The variant KNSQSVLYESRNHNSVA | NASTRES | QQYHRLPLS gave 1.5 nM (6 of 6 replicates).
The variant MVSQLMVWGMHAKNSIA | EAEHRCN | QQYDRLPLF gave 340 nM (2 of 6 replicates).
The variant KVSQSVPYEDRNKNSVA | NASTRES | QQYHRLPLS gave 1.9 nM (6 of 6 replicates).
The variant KLVESELYESRNSNSVA | NASYREE | QQYHRLPLS gave 1.0 nM (6 of 6 replicates).
The variant KLSQSNGYESRNKNSVA | NASTRES | QQYHRLPLS gave 430 pM (6 of 6 replicates).
The variant KSSASGLYESRMKNSVA | EASTRES | QQYHRLPLS gave 1.1 nM (6 of 6 replicates).
The variant KSPQSVLYESRNKNSVA | WAATRES | QQYHRLPLS gave 410 nM (2 of 6 replicates).
The variant KLPQSVLYESRNKNSVA | NASTRSS | QQYHRLPLS gave 1.6 nM (6 of 6 replicates).

The 3 strongest on average among those seen in every replicate, once more:

For KLSQSWLYESRNKNSVA | NASTRES | QDYHRLPLS, the assay gave 390 pM (6 of 6 replicates).
For KLSQSNGYESRNKNSVA | NASTRES | QQYHRLPLS, the assay gave 430 pM (6 of 6 replicates).
For KVSQSVPYESRNKNSVA | EASTRCS | QQYHRLPLS, the assay gave 620 pM (6 of 6 replicates).

Empty control strains, which show no peptide, gave a signal in 4% of pairings with all light chain designs; the median was 430 nM and 95% of these signals were weaker than 38 nM. No background was subtracted. The authors averaged sequences with at least three values out of six and counted those with two or fewer as poor binders. A sequence measured in both rounds can read differently, since the two assays cover different ranges.